Measured values taken from ChEMBL document CHEMBL5154915 (J Med Chem, 2022).
The source made the active and inactive calls. The rule behind the calls is not given here.

Sequences of proteins named here, by UniProt entry; tags and fusion partners are left off. A change or cut given only in a name is not applied to a line headed by its entry.
UniProt P11507: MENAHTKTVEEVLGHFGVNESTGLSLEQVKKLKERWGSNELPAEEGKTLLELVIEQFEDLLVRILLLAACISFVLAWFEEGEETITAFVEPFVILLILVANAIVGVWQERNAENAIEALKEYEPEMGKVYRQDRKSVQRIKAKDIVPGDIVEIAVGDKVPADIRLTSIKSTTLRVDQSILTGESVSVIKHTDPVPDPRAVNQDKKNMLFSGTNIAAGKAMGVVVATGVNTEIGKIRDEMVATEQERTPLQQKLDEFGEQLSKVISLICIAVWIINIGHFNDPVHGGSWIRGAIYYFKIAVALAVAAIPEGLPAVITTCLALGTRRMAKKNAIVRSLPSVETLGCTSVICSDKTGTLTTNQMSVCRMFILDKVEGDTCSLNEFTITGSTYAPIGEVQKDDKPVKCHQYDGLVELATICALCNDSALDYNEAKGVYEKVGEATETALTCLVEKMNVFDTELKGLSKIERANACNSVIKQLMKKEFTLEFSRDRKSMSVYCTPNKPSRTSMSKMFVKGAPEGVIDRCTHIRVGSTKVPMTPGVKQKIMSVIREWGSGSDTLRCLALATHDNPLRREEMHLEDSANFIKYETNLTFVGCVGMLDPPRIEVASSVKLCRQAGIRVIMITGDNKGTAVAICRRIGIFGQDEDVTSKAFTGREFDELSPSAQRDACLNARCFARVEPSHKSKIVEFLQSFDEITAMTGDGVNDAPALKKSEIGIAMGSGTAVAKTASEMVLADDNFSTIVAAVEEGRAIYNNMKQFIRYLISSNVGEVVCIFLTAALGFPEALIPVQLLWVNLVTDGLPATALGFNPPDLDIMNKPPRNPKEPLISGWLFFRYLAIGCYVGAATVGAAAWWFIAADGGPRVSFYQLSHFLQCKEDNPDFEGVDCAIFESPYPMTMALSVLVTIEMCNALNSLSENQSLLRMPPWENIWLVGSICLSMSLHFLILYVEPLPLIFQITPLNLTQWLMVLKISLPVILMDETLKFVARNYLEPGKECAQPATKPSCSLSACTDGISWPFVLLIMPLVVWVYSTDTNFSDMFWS

Key:
[1] = biological target: Sarcoplasmic/endoplasmic reticulum calcium ATPase 2 (Rattus norvegicus) (UniProt P11507); experiment: Reversal of STZ-induced SERCA2a depression in STZ-induced diabetic rat model cardiac preparation assessed as increase in Vmax at 300 nM; assay type: tissue-based; details: Heart
[2] = biological target: Sarcoplasmic/endoplasmic reticulum calcium ATPase 2 (Rattus norvegicus) (UniProt P11507); experiment: Reversal of STZ-induced SERCA2a depression in STZ-induced diabetic rat model cardiac preparation assessed as increase in Vmax at 500 nM; assay type: tissue-based; details: Heart
[3] = biological target: Sarcoplasmic/endoplasmic reticulum calcium ATPase 2 (Rattus norvegicus) (UniProt P11507); experiment: Enhancement of SERCA2a activity in STZ-induced diabetic rat model V-clamped myocytes assessed as acceleration of calcium transient decay at 1 uM by patch clamp method; assay type: cell-based; details: Cardiomyocyte, filed as activator
[4] = biological target: Sarcoplasmic/endoplasmic reticulum calcium ATPase 2 (Rattus norvegicus) (UniProt P11507); experiment: Enhancement of SERCA2a activity in STZ-induced diabetic rat model V-clamped myocytes assessed as increased excitation release at 1 uM by patch clamp method; assay type: cell-based; details: Cardiomyocyte, filed as activator
[5] = biological target: Sarcoplasmic/endoplasmic reticulum calcium ATPase 2 (Rattus norvegicus) (UniProt P11507); experiment: Enhancement of SERCA2a activity in STZ-induced diabetic rat model V-clamped myocytes assessed as effect on calcium transient amplitude at 1 uM by patch clamp method; assay type: cell-based; details: Cardiomyocyte, filed as activator

Row | Structure (SMILES) | Activity [1] [%] | Activity [2] [%] | Activity [3] | Activity [4] | Activity [5]
1 | C[C@]12CC[C@H](CC(=O)O)C[C@@H]1[C@@H](O)C[C@@H]1[C@@H]2CC[C@]2(C)C(=O)CC[C@@H]12 | 25 | 28 | – | – | –
2 | C[C@]12CC[C@H](CCCC(=O)O)C[C@@H]1[C@@H](O)C[C@@H]1[C@@H]2CC[C@]2(C)C(=O)CC[C@@H]12 | 26 | 17 | Active | Active | Active
